In test [1] the target is T1, Mu-type opioid receptor (Homo sapiens, UniProt P35372). The settings on record: HEK-293T, at 10 µM.
For test [2], the target named is Delta-type opioid receptor (Homo sapiens) (UniProt P41143). As to the kind of experiment: Antagonist activity at recombinant human DOR expressed in HEK293T cells assessed as reduction in DADLE-induced inhibition of forskolin-stimulated cAMP level at 10 uM preincubated for 15 to 20 mins followed by DADLE and forskolin addition by GloSensor assay relative to control. It counts as functional, cell-based. The following applies: HEK-293T. The method in brief:
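HEK293T transiently expressing DOR plus GloSensor-22F were given compound in triplicate for 15-20 min at 37°C. DADLE (1 µM) was then added, followed by forskolin (10 µM); luminescence read. Signal normalized to % control (agonist + forskolin).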

Chains of the proteins cited; added tags and fusions are not shown. Lines headed by an entry give the natural chain unless they say otherwise; changes in a name come on top.
UniProt P35372, whole entry, looked up: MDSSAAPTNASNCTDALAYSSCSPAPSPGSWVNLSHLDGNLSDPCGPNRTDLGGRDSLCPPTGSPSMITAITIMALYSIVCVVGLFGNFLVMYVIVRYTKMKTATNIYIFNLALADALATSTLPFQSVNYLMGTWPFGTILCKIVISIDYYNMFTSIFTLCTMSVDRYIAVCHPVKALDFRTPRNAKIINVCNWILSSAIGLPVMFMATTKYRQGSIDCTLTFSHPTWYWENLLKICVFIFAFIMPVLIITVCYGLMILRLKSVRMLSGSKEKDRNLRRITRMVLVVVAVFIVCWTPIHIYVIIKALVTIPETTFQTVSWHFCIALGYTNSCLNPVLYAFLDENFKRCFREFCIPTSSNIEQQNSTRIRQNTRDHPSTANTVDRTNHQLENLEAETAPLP
UniProt P41143, whole entry, looked up: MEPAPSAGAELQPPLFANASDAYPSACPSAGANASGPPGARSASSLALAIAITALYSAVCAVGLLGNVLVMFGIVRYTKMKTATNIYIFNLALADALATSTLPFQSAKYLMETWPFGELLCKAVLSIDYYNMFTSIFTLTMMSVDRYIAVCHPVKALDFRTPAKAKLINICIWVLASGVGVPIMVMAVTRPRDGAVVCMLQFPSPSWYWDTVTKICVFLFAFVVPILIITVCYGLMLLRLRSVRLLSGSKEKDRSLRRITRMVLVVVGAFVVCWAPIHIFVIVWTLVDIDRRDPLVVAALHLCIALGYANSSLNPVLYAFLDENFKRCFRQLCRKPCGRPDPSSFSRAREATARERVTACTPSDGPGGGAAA
UniProt P35367, whole entry, looked up: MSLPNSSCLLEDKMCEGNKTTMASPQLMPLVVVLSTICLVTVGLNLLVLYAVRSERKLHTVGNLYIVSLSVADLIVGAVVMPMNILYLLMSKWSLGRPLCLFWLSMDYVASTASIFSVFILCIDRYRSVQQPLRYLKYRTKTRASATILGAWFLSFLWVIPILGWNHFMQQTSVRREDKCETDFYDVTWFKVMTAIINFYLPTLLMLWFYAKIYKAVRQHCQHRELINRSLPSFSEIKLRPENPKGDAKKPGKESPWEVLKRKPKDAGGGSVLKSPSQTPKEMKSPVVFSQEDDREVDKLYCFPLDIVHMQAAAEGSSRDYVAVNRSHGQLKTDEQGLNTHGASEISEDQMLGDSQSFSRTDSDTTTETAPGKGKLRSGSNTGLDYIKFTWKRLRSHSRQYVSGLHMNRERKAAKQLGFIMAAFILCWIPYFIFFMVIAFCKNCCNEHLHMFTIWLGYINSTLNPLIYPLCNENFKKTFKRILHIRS
UniProt P41145: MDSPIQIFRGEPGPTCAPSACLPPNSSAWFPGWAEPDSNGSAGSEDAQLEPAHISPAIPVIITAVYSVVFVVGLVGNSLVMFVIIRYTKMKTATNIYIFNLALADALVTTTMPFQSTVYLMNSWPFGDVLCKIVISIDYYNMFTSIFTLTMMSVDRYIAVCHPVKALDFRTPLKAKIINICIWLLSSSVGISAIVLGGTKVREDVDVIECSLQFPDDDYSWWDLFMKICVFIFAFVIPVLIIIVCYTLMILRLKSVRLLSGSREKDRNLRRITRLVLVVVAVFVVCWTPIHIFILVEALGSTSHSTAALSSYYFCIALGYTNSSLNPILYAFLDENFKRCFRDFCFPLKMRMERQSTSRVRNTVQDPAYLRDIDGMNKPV

Test [3] deals with Histamine H1 receptor (Homo sapiens) (UniProt P35367). As to the kind of experiment: Antagonist activity at histamine H1 receptor (unknown origin) at 10 uM. The procedure, abridged: (§1)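 Primary screen, agonist and antagonist modes, each receptor tested separately. Compounds at 10 µM in triplicate; response taken as % inhibition or stimulation relative to control. Compounds giving at least 50% effect were then run over 10 µM to 10 pM to obtain EC50/IC50.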

The target in test [4] is Delta-type opioid receptor (Homo sapiens) (UniProt P41143). As to the kind of experiment: Agonist activity at recombinant human DOR expressed in HEK293T cells assessed as inhibition of forskolin-stimulated cAMP level at 10 uM preincubated for 15 to 20 mins followed by forskolin addition by GloSensor assay relative to control. The settings on record: HEK-293T. It counts as functional, cell-based. The method in brief:
(§2)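 HEK293T transiently co-transfected (calcium phosphate) with DOR or MOR plus pGloSensor-22F. Cells were loaded with luciferin in HBSS/20 mM HEPES pH 7.4 for 90 min, then given compound in triplicate for 15-20 min at 37°C. Forskolin added (final 10 µM); luminescence read. cAMP signal normalized to forskolin-alone control.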

In test [5] the test system is Mus musculus. As to the kind of experiment: Analgesic activity in C57BL/6J mouse assessed as tail withdrawal latency at 5 mg/kg by tail flick test.
The target in test [6] is T1, Mu-type opioid receptor. As to the kind of experiment: Agonist activity at recombinant human MOR expressed in HEK293T cells assessed as inhibition of forskolin-stimulated cAMP level at 10 uM preincubated for 15 to 20 mins followed by forskolin addition by GloSensor assay relative to control. The following applies: HEK-293T. It counts as functional, cell-based. The method in brief: as §2

The target in test [7] is Histamine H1 receptor (Homo sapiens) (UniProt P35367). As to the kind of experiment: Agonist activity at histamine H1 receptor (unknown origin) at 10 uM. The procedure, abridged:
as §1

The test system of test [8] is Mus musculus. As to the kind of experiment: Analgesic activity in C57BL/6J mouse assessed as tail withdrawal latency at 5 mg/kg measured after 30 mins in presence of KOR antagonist norBNI by tail flick test.
For test [9], the target named is T2, Kappa-type opioid receptor (Homo sapiens, UniProt P41145). The following applies: HEK-293T, at 10 µM.
Test [10] has as its target T2, Kappa-type opioid receptor. The following applies: HEK-293T, at 10 µM. The source holds these as a separate data set.

The results in this text go back to ChEMBL document CHEMBL4038325, “Opioid Receptor Modulators with a Cinnamyl Group” (J Med Chem, 2017).

Structures are written as SMILES. Activity calls are given as the source filed them. The rule behind the calls is not given here.

Regarding `CN(C(=O)Cc1ccc(Cl)c(Cl)c1)C1CCCCC1N1CCCC1` (stereo not drawn), the inhibition result (on Mu-type opioid receptor [1]; in test [2]; in [3]; in test [4]; at Mu-type opioid receptor [6]) was “inactive” in each case. For the same compound, in the test on Mus musculus [5], the Activity result was “Tde”. Besides, the outcome (in test [7]; in the test with Mus musculus [8]) was inactive.
As for `CC1CN(C/C(=C\c2ccccc2)C(=O)NCC(=O)O)CCC1(C)c1cccc(O)c1` (stereo not drawn), on Mu-type opioid receptor [1], the inhibition turned out to be 50%. In addition, the inhibition entry in test [9], in test [2], in test [4] and in test [10] was “inactive” each time.
